This note sets out measurements from BindingDB's records for doi:10.1021/jm060807n (Universite Montpellier Ii, 2006).

Chains of the proteins cited; added tags and fusions are not shown. Lines headed by an entry give the natural chain unless they say otherwise; changes in a name come on top.
UniProt Q9D6N1: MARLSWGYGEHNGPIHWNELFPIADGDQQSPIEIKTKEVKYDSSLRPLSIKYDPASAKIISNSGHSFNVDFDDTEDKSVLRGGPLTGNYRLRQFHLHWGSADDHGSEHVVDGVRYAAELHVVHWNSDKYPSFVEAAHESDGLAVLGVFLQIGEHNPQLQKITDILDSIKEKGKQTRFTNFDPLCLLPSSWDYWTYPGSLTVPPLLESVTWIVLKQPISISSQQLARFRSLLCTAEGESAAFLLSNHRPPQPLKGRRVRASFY

This experiment has as its target Carbonic anhydrase 13 (Mus musculus, UniProt Q9D6N1).

What is called Ki is a dissociation constant, usually derived from enzyme kinetics or from competition with a known ligand. The low end stands for a stronger hold on the target, the high end for a looser hold on the target.

`CC(=O)/N=c1\sc(S(N)(=O)=O)nn1C` had a Ki of 19 nM.
